Measured values as given in patent US10208003B2, “Synthesis of amine substituted 4,5,6,7-tetrahydrobenzothiazole compounds” (KNOPP BIOSCIENCES LLC, priority 2011, dated 2019).

Settings: qualitative statement

For `CCCN[C@@H]1CCc2nc(N)sc2C1.Cl.Cl` [Form A, (R)-(+)-2-amino-4,5,6,7-tetrahydro-6-(n-propylamino)benzothiazole dihydrochloride], the solubility in water was “highly soluble in water”.
